Results published in US20210317408A1, “METHODS AND COMPOSITIONS FOR GENETICALLY MODIFYING LYMPHOCYTES IN BLOOD OR IN ENRICHED PBMCS” (Exuma Biotech Corp., priority 2018, published 2021).

System: PBMCs expressing eTag
Experiment: Elimination of eTag-expressing PBMCs exposed to Cetuximab in vitro
Type: cell-based
Text: Others have shown that application of biotinylated-cetuximab to immunomagnetic selection in combination with anti-biotin microbeads successfully enriches T cells that have been lentivirally transduced with EGFRt-containing constructs from as low as 2% of the population to greater than 90% purity without observable toxicity to the cell preparation. […] In addition, others have shown that through flow cytometric analysis, EGFR was successfully utilized as an in vivo tracking marker for T cell engraftment in mice. […] Thus, EGFR may be used as a non-immunogenic selection tool, tracking marker, and suicide gene for transduced T cells that have immunotherapeutic potential. The EGFR nucleic acid may also be detected by means well known in the art.

Cetuximab: commercially available anti-EGFR monoclonal antibody
elimination of PBMCs expressing eTag: effective elimination mechanism
